The target in assay [1] is WT IDH1 (Homo sapiens, UniProt O75874). The assay can be described thus: WT IDH1 enzyme inhibition. The assay is classed as biochemical.
Assay [2] has as its system WT IDH1. The experiment in a line: WT IDH1 enzyme inhibition. Particulars: mutant IDH1 vs WT-IDH1. Format: biochemical, human.

Protein sequences, listed by entry. Tags and fused reporters are not part of them.
UniProt O75874, whole entry: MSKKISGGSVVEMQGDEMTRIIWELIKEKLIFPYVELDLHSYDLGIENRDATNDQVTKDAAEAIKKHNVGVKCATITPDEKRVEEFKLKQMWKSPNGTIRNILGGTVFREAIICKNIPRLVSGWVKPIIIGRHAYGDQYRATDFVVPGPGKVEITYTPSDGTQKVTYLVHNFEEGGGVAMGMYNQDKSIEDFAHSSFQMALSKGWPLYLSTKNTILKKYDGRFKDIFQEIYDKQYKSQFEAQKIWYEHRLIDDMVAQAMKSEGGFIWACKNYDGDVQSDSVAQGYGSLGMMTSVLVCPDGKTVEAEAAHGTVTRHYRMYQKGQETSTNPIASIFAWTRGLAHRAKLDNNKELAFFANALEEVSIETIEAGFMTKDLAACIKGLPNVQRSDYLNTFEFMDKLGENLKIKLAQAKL

The structures appear in SMILES notation. pKi: −log10 of the molar value. Some results are limits rather than exact numbers.

Regarding `O=c1ccc(Cc2ccccc2)cn1O` [Compound 1], the pKi (usually −log10 of the Ki, conventionally taken in molar units) at WT IDH1 [1] is < 4.30.

For the compound `Cc1cc(Cc2ccc(O)cc2)n(O)c(=O)c1` [Compound 3], in the assay on WT IDH1 [2], the “selectivity against WT-IDH1” value is reported as > 60 fold.

The record behind these values is article PMC3686309 (ACS medicinal chemistry letters, 2013).
